This assay has as its system ESC Cell Line. Description: Flow cytometry of cells at the end of stage 3, differentiated in basal medium with different serum albumin. It is filed as cell-based. As to conditions: FIG. 3B. (In general: Flow cytometry measures light scatter and fluorescence of single cells or particles in a stream.)

These results are taken from US12304900B2, “Islet cell manufacturing compositions and methods of use” (Vertex Pharmaceuticals Incorporated, priority 2017, dated 2025).

In the case of “HSA: human serum albumin, exemplary component of the basal culture medium”, the “effect of HSA concentration on percentage of Pdx1+ and CDX2+ cells” value is reported as “concentration-dependent effect”. Besides, the “percentage of off-target CDX2-positive (CDX2+) cells” value (compared to medium containing BSA or No SA) was “significantly decreased”. Moreover, the “percentage of Pdx1-positive cells (Pdx1+)” value (compared to medium containing BSA or no serum albumin (No SA)) was “significantly increased”.
